# AlphaSeq binding of Ab-14 heavy chain variants to a spike HR2 peptide

Binding partner: SARS-CoV-2 spike HR2 peptide, sequence PDVDLGDISGINAS.

Parent: Ab-14, a human scFv built as VH, a 15-residue (Gly4Ser)3 linker, VL. Only the CDRs of the heavy chain vary.
VH: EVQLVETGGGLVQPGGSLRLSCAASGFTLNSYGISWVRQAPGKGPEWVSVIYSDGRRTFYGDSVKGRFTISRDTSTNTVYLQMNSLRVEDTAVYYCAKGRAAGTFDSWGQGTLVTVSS
VL: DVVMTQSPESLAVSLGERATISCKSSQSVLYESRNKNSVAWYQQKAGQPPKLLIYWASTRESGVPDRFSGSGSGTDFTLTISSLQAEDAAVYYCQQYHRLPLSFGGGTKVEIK

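Phage display of a naive human antibody library on the peptide gave the parent. These sequences belong to a second round, designed from the earlier measurements on random variants of the parent. Their group label is 14H_En_Gen (En: ensemble of fine-tuned language models; Gen: genetic algorithm). Affinity was read by AlphaSeq, a pooled yeast mating assay with surface-displayed partners. The frequency of each diploid, read from paired DNA barcodes, reflects how well the two displayed proteins bind. Each replicate has its own calibration line, from reference interactions of the BCL2 family. Mating was done six times.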

The parent's heavy chain CDRs are GFTLNSYGIS, VIYSDGRRTFYGDSVK, GRAAGTFDS; each variant's own CDRs replace them letter for letter.
The read-out is the apparent dissociation constant on a log10 scale (nM): the lower, the stronger.
The mean shown is taken over the replicates in which the pair was detected.
An entry "ND" has no value in the source: the pair was not observed among the diploids in that replicate. This suggests poor binding but is not conclusive.

Variant GFDLDEYGIS, VIYADGQRTAYADSVK, GEVAGTFDQ gave -0.40, -0.17, -0.35, -0.24, -0.50, 0.15 (mean -0.25; controls 0 of 18).
Variant GFDLNEYGIS, VIYADGSRTAYADSVK, GNNAGTFDT gave -0.09, -0.08, 0.09, -0.11, -0.05, 0.45 (mean 0.03; controls 0 of 18).
Variant GFDLEDYGIS, VIYADGKRTAYADSVK, GNNAGTFDV gave ND, ND, ND, ND, ND, ND (controls 0 of 18).
Variant GFDLNEYGIS, VIYADGRRTAYADSVK, GNEAGTFDQ gave 0.14, -0.30, 0.11, -0.86, -0.88, -0.31 (mean -0.35; controls 0 of 18).
Variant GFDLNEYGIS, VIYADGMRTAYADSVK, GEVAGTFDF gave -0.75, -1.35, -1.38, ND, 0.49, -0.35 (mean -0.67; controls 0 of 18).
Variant GFDLNEYGIS, VIYADGQRKAYADDVK, GENAGTFDV gave 0.40, 0.24, 0.60, 0.35, 1.18, 0.52 (mean 0.55; controls 0 of 18).
Variant GFDLNEYGIS, VIYADGRRTAYANDVK, GEVAGTFDV gave -0.34, -0.33, -0.34, -0.53, -0.45, -0.46 (mean -0.41; controls 0 of 18).
Variant GFDLDEYGIS, VIYADGMRTAYADSVK, GHVAGTFDV gave -0.43, -0.57, -0.56, -0.73, -0.51, -0.30 (mean -0.52; controls 0 of 18).
Variant GFDLNEYGIS, VIYADGVRTAYVDSVK, GNVAGTFDV gave 0.70, 0.84, 0.26, 0.46, -0.05, 0.26 (mean 0.41; controls 0 of 18).
Variant GFDLNEYGIS, VIYADGMRTAYIDSVK, GNVAGTFDV gave -0.42, -0.70, -0.73, -0.64, -0.89, -0.74 (mean -0.69; controls 0 of 18).
Variant GFDLNEYGIS, VIYADGLRTAYIDSVK, GNVAGTFDV gave -1.00, -0.91, -1.12, -1.46, -1.17, -1.02 (mean -1.11; controls 0 of 18).
Variant GFDLDEYGIS, VIYADGSRTAYADSVK, GNNAGTFDQ gave 0.10, -0.11, -0.10, -0.33, -0.12, 0.27 (mean -0.05; controls 0 of 18).
Variant GFDLNEYGIS, VIYADGKRTAYSDDVK, GEVAGTFDV gave 0.21, -1.06, -1.29, -1.46, -1.15, -1.28 (mean -1.00; controls 1 of 18).
Variant GFDLNEYGIS, VIYADGMRTAYADDVK, GNVAGTFDE gave -0.57, -0.65, -0.63, -0.71, -0.66, -0.06 (mean -0.55; controls 0 of 18).
Variant GFDLNEYGIS, VIYADGRRTAYADSVK, GETAGTFDQ gave -0.45, -1.09, -1.29, -0.88, -0.39, -0.83 (mean -0.82; controls 0 of 18).
Variant GFDLNEYGIS, VIYADGVRTAYADDVK, GETAGTFDL gave -0.36, -0.85, -0.42, -1.18, -1.15, -0.64 (mean -0.77; controls 0 of 18).
Variant GFDLDEYGIS, VIYADGMRTFYADSVK, GNQAGTFDV gave 0.13, 0.30, 0.06, -0.22, -0.11, 0.26 (mean 0.07; controls 1 of 18).
Variant GFDLNEYGIS, VIYADGMRTAYADSVK, GTNAGTFDM gave -0.40, -0.02, 0.07, -0.72, -0.88, -0.63 (mean -0.43; controls 0 of 18).
Variant GFDLEEYGIS, VIYADGMRTAYADNVK, GNVAGTFDV gave ND, 2.87, ND, ND, ND, 3.40 (mean 3.14; controls 1 of 18).
Variant GFDLNEYGIS, VIYADGKRTAYANDVK, GEVAGTFDL gave -0.58, -0.22, -0.44, -0.59, -0.65, -0.47 (mean -0.49; controls 0 of 18).
Variant GFDLDEYGIS, VIYADGKRTAYADSVK, GQNAGTFDI gave -0.28, -0.41, -0.26, -0.18, 0.96, -0.18 (mean -0.06; controls 0 of 18).
Variant GFDLNEYGIS, VIYADGMRTAYADSVK, GNVAGTFNQ gave -0.16, -0.29, -0.41, -0.33, -0.52, -0.29 (mean -0.33; controls 0 of 18).
Variant GFDLDEYGIS, VIYADGVRTAYADSVK, GNVAGTFDQ gave 0.15, -0.43, 0.15, 0.09, 0.14, 0.45 (mean 0.09; controls 0 of 18).
Variant GFDLNEYGIS, VIYADGQRTAYVDSVK, GNVAGTFDV gave -0.78, -0.65, -0.63, -0.69, -0.90, -0.57 (mean -0.70; controls 0 of 18).
Variant GFDLNEYGIS, VIYADGLRTAYADSVK, GNNAGTFDI gave -0.06, -0.01, -0.42, -0.79, -0.54, -0.43 (mean -0.37; controls 0 of 18).
Variant GFDLDEYGIS, VIYADGVRTAYADDVK, GENAGTFDV gave 0.59, -0.27, -0.22, -0.55, 0.01, -0.10 (mean -0.09; controls 0 of 18).
Variant GFDLNEYGIS, VIYADGKRTAYADDVK, GEVAGTFDQ gave -0.78, -0.57, -0.57, -1.02, -0.40, -0.98 (mean -0.72; controls 0 of 18).
Variant GFDLNEYGIS, VIYADGKRVAYADSVK, GNVAGTFDV gave -0.02, ND, 0.22, ND, 0.01, 0.45 (mean 0.16; controls 0 of 18).
Variant GFDLNEYGIS, VIYADGVRTFYADSVK, GNNAGTFDM gave -1.00, 0.31, 0.12, -1.64, -0.84, -1.24 (mean -0.72; controls 0 of 18).
Variant GFDLNEYGIS, VIYADGMRTAYIDSVK, GETAGTFDL gave -0.07, -0.31, -0.60, -0.16, -0.34, -0.05 (mean -0.26; controls 0 of 18).
Variant GFDLDEYGIS, VIYADGMRTVYADSVK, GENAGTFDT gave -0.91, 0.08, ND, -1.60, -1.23, -0.72 (mean -0.88; controls 0 of 18).
Variant GFDLNEYGIS, VIYADGVRKAYADSVK, GNQAGTFDI gave -0.39, -0.85, -0.66, -1.25, -1.21, -0.94 (mean -0.88; controls 0 of 18).
Variant GFDLDEYGIS, VIYADGKRTAYSDSVK, GEVAGTFDQ gave -0.29, 0.65, -0.45, -0.77, 0.34, -0.57 (mean -0.18; controls 0 of 18).
Variant GFDLNEYGIS, VIYADGIRTAYSDSVK, GNVAGTFDL gave 0.10, 0.31, 0.18, 0.14, -0.04, 0.31 (mean 0.16; controls 0 of 18).
Variant GFDLNEYGIS, VIYADGMRTAYSDDVK, GNVAGTFDI gave -0.07, -0.18, -0.71, -0.39, -0.04, -0.28 (mean -0.28; controls 0 of 18).

The parent sequence was in this pool as ten entries: three were never detected, three once, and four in most replicates, with averages from 0.34 to 2.37.
Empty control strains, which show no peptide, gave a signal in 1% of pairings with all heavy chain designs; the median was 2.08 and 95% of these signals were weaker than 0.84. No background was subtracted. For each scFv, signals with the empty controls are counted beside the result.
A sequence measured in both rounds can read differently, since the two assays cover different ranges.
The authors' rule: three or more of the six replicates give a measured affinity, fewer mean a poor binder.

Data: MIT Lincoln Laboratory AlphaSeq set, Li et al. 2023, doi:10.1038/s41467-023-39022-2, as distributed in FLAb.